The test has as its target human KOR (Homo sapiens, UniProt P41145, D266A). The experiment in a line: BRET assay, KOR-Rluc and Nb6-mVenus: Nb6 binding / agonist-induced dissociation. The format is cell-based.

Here are results for one molecule from paper PMC7052193, “Nanobody-enabled monitoring of kappa opioid receptor states” (Nature Communications, 2020).

Where “and” joins values, the source holds several entries; their conditions need not be identical. Equal entries are not always repeated.

B1: Nb6-mVenus (VHH)
VHH: QVQLQESGGGLVQAGESLRLSCAASGTIFRLYDMGWYRRVSGNQRELVASITSGGSTKYGDSVKGRFTISRDNAKNTVYLQMSSLKPEDTAVYYCNAEYRTGIWEELLDGWGQGTQVTVSS
notes: as the chain of m2, nanobody chain of PDB 6VI4; source: HEK 293T, co-transfected, in live cells; not shown: mVenus, C-terminal, kept
Consider B1, for which the “Net BRET, KOR mutations with Nb6, source data Figure 3b” value was 0.1115 and 0.1134.
